Source: PubChem (ICCB-Longwood Screening Facility, Harvard Medical School)
Many of the other results were omitted from the sample, so hits are more common in it than they were.
HCMV NEC inh – inhibitors of HCMV UL50-UL53 interaction, biochemical, HTRF; 190,000 compounds, 0.15% hits; inhibition, % (concentration not given with the values); normalized percent inhibition; HCMV UL50-UL53 nuclear egress complex (human cytomegalovirus); in the data active means inhibition above about 27%, passing the limit was not always enough
GIV-Gai inh – inhibitors of GIV peptide binding to Galpha-i3, primary screen, biochemical, fluorescence polarization, FITC-GIV GBA peptide, rat Galphai3; 90 min; stronger effect = lower value; scaled: aluminum fluoride 0%, vehicle 100%; percent of control (FP), % (no concentration beside the values); 210,000 tested, 0.42% active; AID 1224905, 2016;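 active = replicate mean at 85% of control or lower, very high polarization wells dropped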;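 note: wells of about 15 µL received 100 nL stock; the first replicate is given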
A number is an active result; . = inactive; / = no result; ! = a repeat was not active.

SMILES	HCMV NEC inh	GIV-Gai inh
COc1cc(C=C2C(=O)N(C)C(=O)N(C)C2=O)ccc1OS(=O)(=O)c1ccccc1[N+](=O)[O-]	43	.
CCOc1cc(/C=C2/C(=O)N(c3ccccc3)N=C2C)ccc1OS(=O)(=O)c1ccccc1[N+](=O)[O-]	.	.
Nc1nc2c(s1)CCc1c-2cnn1-c1ccccc1	63	/
Cc1c(-c2ccnc(N)n2)cnn1-c1ccccc1	.	.
Cc1c(OCc2ccccc2)ccc2c(C(F)(F)F)cc(=O)oc12	/	.
Nn1cnnc1SCc1ccccc1	/	.
Cc1cc2n(n1)CCCN2C(=O)Nc1cccc(C)c1C	.	.
N#C/C(=C\c1ccc(-c2ccccc2C(=O)O)o1)c1nc2ccccc2[nH]1	.	.
N#C/C(=C\c1ccc(-c2ccc(F)cc2F)o1)c1nc2ccccc2[nH]1	.	-6.1
CN(C)c1nc(NCCO)c2cnn(C)c2n1	.	.
CCOC(=O)c1sc(NC(=O)C2c3ccccc3Oc3ccccc32)c(C#N)c1C	.	.
CCOC(=O)c1sc(N/C=C(\C#N)c2nc3cc(Cl)ccc3o2)c(C#N)c1C	.	-7.6
CCn1c(N2CCCC(C(=O)NCCCN3CCC(N4CCCCC4)CC3)C2)cc(=O)n(C)c1=O (stereo not given)	/	.
Cc1cc(NC(=O)CCc2nc(CSc3nc(-c4ccc(F)cc4)cs3)no2)no1	/	.
CC1CC(C)CN(c2cc(NCCO)c3c4c(onc24)-c2ccccc2C3=O)C1 (stereo not given)	.	.
O=C1c2ccccc2-c2onc3c(NCCO)cc(NC4CCCCC4)c1c23	.	45
CCCCNc1cc(NC2CCCCC2)c2c3c(onc13)-c1ccccc1C2=O	.	.
Cc1ccc(Sc2cc(Cl)c3noc4c3c2C(=O)c2ccccc2-4)cc1	/	.
CC(C)CNc1cc(NCCO)c2c3c(onc13)-c1ccccc1C2=O	/	-54
CC(C)CNc1cc(Cl)c2noc3c2c1C(=O)c1ccccc1-3	/	-55
CS(=O)(=O)Nc1ccc(/C(N)=N/OC(=O)c2ccc(Cl)cc2)cc1	.	.
COc1ccc(S(=O)(=O)NCCc2sc3nc(-c4ccc(C)cc4)nn3c2C)cc1	/	.
C/C(=N\NC(=O)c1cc(-c2ccccc2Cl)n[nH]1)c1ccco1	.	.
COc1ccc(N(/C=C2\Sc3ccccc3C2=O)C(=O)c2ccco2)cc1	.	.
COc1ccc(N(C=O)/C=C2\Sc3ccccc3C2=O)cc1	.	-15
SMILES	HCMV NEC inh	GIV-Gai inh
Cc1ccc(C2=CC(c3ccc(C)cc3)n3nc(NS(=O)(=O)c4ccccc4)nc3N2)cc1 (stereo not given)	.	.
CNC(=O)c1sc2nc(-c3ccccc3)cn2c1C	/	.
NC(=O)c1cccc2cccc(Sc3ccccc3)c12	.	.
CC(C)(C)C1CCc2c(sc3nc(-c4cc5ccccc5oc4=O)[nH]c(=O)c23)C1 (stereo not given)	.	.
CCN(CC)c1ccc2cc(-c3nc4sc5c(c4c(=O)[nH]3)CCC(C(C)(C)C)C5)c(=O)oc2c1 (stereo not given)	.	-66
CCN(CC)c1ccc2cc(-c3nnc(Nc4ccc(C)cc4)s3)c(=O)oc2c1	/	-70
CCOC(=O)c1ccc(Nc2nnc(-c3cc4ccc(N(CC)CC)cc4oc3=O)s2)cc1	.	.
CN(C)/C=C/C=C1\CCc2ccccc2C1=O	/	-73
CN(C)/C=C/C=C1\CC/C(=C\C=C\N(C)C)C1=O	.	.
COc1ccc(NS(=O)(=O)c2cc3c(cc2Cl)NC(=O)CO3)c(OC)c1	.	.
Cc1cccc(-c2nc3c(cnn3-c3ccccc3)c(=O)n2-c2ccc(Br)cc2)c1	56	.
Cc1ccc(-n2c(-c3cccc(C)c3)nc3c(cnn3-c3ccccc3)c2=O)cc1	.	.
COc1cc(OC)cc(C(=O)N(C)CCc2ccc(OC)c(OC)c2)c1	.	/
CCC(Sc1nc2ccccc2o1)C(=O)Nc1cc(C)on1 (stereo not given)	/	.
O=C1/C(=C\c2ccc(Br)o2)CC/C1=C/c1ccc(Br)o1	/	.
O=C1/C(=C/c2cc3ccccc3o2)CC/C1=C\c1cc2ccccc2o1	/	-5.9
CCOC(=O)C1=C(C)NC2(O)c3ccccc3C(=O)C12O (stereo not given)	/	.
CC1=C(C(=O)OCc2ccccc2)C2(O)C(=O)c3ccccc3C2(O)N1 (stereo not given)	66	/
O=C(CSc1nnc2c3sc(N4CCCC4)nc3ncn12)NC1CCCCC1	/	.
CNC(=O)CSc1nnc(NC2CCCCC2)s1	.	/
CCN1CCN(C(=O)C(C)NS(=O)(=O)c2ccc(OC)c(C)c2)CC1 (stereo not given)	.	.
C=CC(=O)Nc1cccc(Oc2ccnc3[nH]ccc23)c1	33	/
C=CC(=O)Nc1cccc(Oc2ccnc(Nc3ccc(N4CCN(C)CC4)cc3)n2)c1	.	/
CCN1/C(=C\C=C\c2n(CC)c3cc([N+](C)(C)C)ccc3[n+]2CC)N(CC)c2cc([N+](C)(C)C)ccc21	/	.
CCN1/C(=C/C=C/c2n(CC)c3cc(Cl)ccc3[n+]2Cc2ccccc2)N(Cc2ccccc2)c2ccc(Cl)cc21	/	-62
SMILES	HCMV NEC inh	GIV-Gai inh
O=C1C(c2c(O)[nH]c3ccccc23)=Nc2ccccc21	.	/
O=C1c2ccccc2-[n+]2ccc3c([nH]c4ccccc43)c21	61	/
CCc1nc2sc(C#N)c(N)c2cc1C	.	/
CN(C)c1ccc2c3c(cccc13)C(=O)N(c1nc3ccccc3n1C)C2=O	.	.
CC(=O)NN1C(=O)c2cccc3c(N(C)C)ccc(c23)C1=O	/	66
O=C(O)CCCN1C(=O)/C(=C/c2c(N3CCN(Cc4ccccc4)CC3)nc3ccccn3c2=O)SC1=S	.	.
CC(C)CN1C(=O)/C(=C/c2c(N3CCN(CCO)CC3)nc3ccccn3c2=O)SC1=S	.	41
O=c1c(S(=O)(=O)c2ccc(F)c(Cl)c2)c[nH]c2cc(F)ccc12	.	.
COc1ccc(C2C=C(c3ccc(Cl)cc3)Nc3nc(-c4ccc(Cl)cc4)nn32)cc1 (stereo not given)	.	-8.2!
O=C(Nc1nc2n(n1)C(c1ccc(F)cc1)C=C(c1ccccc1)N2)c1ccco1 (stereo not given)	.	.
COc1ccc(C(=O)Nc2nc3n(n2)C(c2ccc(Cl)cc2)C=C(c2ccccc2)N3)cc1OC (stereo not given)	.	40
O=C(Nc1nc2n(n1)C(c1ccc(Cl)cc1)C=C(c1ccccc1)N2)c1ccco1 (stereo not given)	.	-44
Cc1ccc(C2=CC(c3ccc(Cl)cc3)n3nc(-c4ccc(C)cc4)nc3N2)cc1 (stereo not given)	.	.
COc1ccc(C2C=C(c3ccccc3)Nc3nc(NC(=O)c4ccc(C)cc4)nn32)cc1 (stereo not given)	.	.
NC(=O)Cn1nc(C(=O)O)c2ccccc2c1=O	.	/
CCOC(=O)N1CCN(C(=O)c2cnn3c(C(F)(F)F)cc(-c4cccc(OC)c4)nc23)CC1	.	.
N#Cc1c(N2CCCC(O)C2)nc(N)c2c(N)nc3c(c12)CC(=O)N3C12CC3CC(CC(C3)C1)C2 (stereo not given)	80	/
C=C(C)CN(CC)c1nc(N)c2c(N)nc3c(c2c1C#N)CC(=O)N3C12CC3CC(CC(C3)C1)C2	.	/
Cc1noc(N)c1-c1nc(-c2ccc(Cl)cc2Cl)cs1	.	.
C=CC(=O)Nc1sc2c(c1C(=O)OCC)CCCC2	.	/
